# Reference: patent EP4843985A1, “TRIAZOLOPYRIMIDINE DERIVATIVE, PREPARATION METHOD THEREFOR AND USE THEREOF” (dated 2026)
# Amino acid sequences for entries named in this document (tags omitted). Residues count along the entry.
# UniProt Q14191, 517-1238 limits assumed: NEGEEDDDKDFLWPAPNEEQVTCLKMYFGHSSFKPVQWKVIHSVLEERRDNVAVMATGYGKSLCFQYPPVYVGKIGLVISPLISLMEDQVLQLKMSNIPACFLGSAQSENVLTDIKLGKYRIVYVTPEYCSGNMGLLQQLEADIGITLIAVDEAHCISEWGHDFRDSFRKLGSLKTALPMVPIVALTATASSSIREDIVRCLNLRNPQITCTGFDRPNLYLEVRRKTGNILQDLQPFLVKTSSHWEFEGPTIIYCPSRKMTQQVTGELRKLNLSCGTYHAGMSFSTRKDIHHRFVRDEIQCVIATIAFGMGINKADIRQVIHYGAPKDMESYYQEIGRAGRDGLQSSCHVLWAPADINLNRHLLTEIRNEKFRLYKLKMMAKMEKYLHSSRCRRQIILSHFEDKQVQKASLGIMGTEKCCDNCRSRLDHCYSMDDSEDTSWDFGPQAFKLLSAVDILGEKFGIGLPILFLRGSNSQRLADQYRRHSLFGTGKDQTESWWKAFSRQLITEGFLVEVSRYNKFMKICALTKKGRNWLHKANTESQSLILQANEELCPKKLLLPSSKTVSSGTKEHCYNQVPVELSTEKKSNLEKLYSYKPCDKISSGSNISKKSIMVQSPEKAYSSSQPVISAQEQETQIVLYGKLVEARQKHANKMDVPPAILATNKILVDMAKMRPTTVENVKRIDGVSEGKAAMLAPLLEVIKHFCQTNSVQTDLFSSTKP
# Where “and” joins values, the source holds several entries; their conditions need not be identical. Equal values may be shown once. Read-outs that look alike come from different tables or passages of the source.
# Key:
# SW48 (CRC, MSI) = assay: Cell proliferation inhibition assay (CellTiter-Glo), SW48
# [1] = molecular target: WRN protein (AA N517-P1238) (Homo sapiens, UniProt Q14191); assay: In vitro WRN enzymatic activity assay (ADP-Glo ATPase assay); conditions: read-out: ADP-Glo, 10 nM WRN enzyme, 3 hours pre-incubation at 25°C, ssDNA substrate
# SW620 (CRC, MSS) = assay: Cell proliferation inhibition assay (CellTiter-Glo), SW620; conditions: read-out: SW620 (CRC, MSS), 120 hours
# [2] = read-out: SW48 (CRC, MSI), 120 hours
SMILES,"IC50 (SW48 (CRC, MSI); [2])",IC50 [1] [nM],"IC50 (SW620 (CRC, MSS)) [nM]",other results
CCc1c(N2CCN(C(=O)c3ncnc(C)c3O)CC2)c(=O)n2nc(C3=CCC(C(=O)N(C(C)C)C(C)C)CC3)nc2n1CC(=O)Nc1ccc(C(F)(F)F)cc1Cl (racemic),42.5 nM,1.9,> 10000,–
CCc1c(N2CCN(C(=O)c3ncnc(C)c3O)CC2)c(=O)n2nc(C3=CCOCCC3)nc2n1CC(=O)Nc1cc(C(F)(F)F)sc1Cl,48.8 nM,2.24,> 10000,–
CCc1c(N2CCN(C(=O)c3ncnc(C)c3O)CC2)c(=O)n2nc(C3=CCN(S(C)(=O)=O)CC3)nc2n1CC(=O)Nc1ccc(C(F)(F)F)cc1Cl,50.9 nM,8.12,> 10000,–
CCc1c(N2CCN(C(=O)c3ncnc(C)c3O)CC2)c(=O)n2nc(C3=CCOCC3)nc2n1CC(=O)Nc1scc(C(F)(F)F)c1Cl,72.5 nM,8.69,> 10000,–
CCc1c(N2CCN(C(=O)c3ncnc(C)c3O)CC2)c(=O)n2nc(C3=CCC(S(=O)(=O)N(C)C)CC3)nc2n1CC(=O)Nc1ccc(C(F)(F)F)cc1Cl (stereo not shown),17 nM,1.8,> 10000,–
"CCc1c(N2CCN(C(=O)c3ncnc(C)c3O)CC2)c(=O)n2nc(C3=CCC(C(=O)N(C)C)CC3)nc2n1CC(=O)Nc1ccc(C(F)(F)F)cc1Cl (single isomer, unassigned)",–,–,> 10000,"IC50 (SW48 (CRC, MSI); read-out: SW48 (CRC, MSI), 120 hours, listed as 94-peak 1): 30.5 nM; IC50 (SW48 (CRC, MSI); read-out: SW48 (CRC, MSI), 120 hours, listed as 94-peak 2): 52.2 nM; IC50 ([1]; listed as 94-peak 1): 4.96 nM; IC50 ([1]; listed as 94-peak 2): 3.59 nM"
CCc1c(N2CCN(C(=O)c3ncnc(C)c3O)CC2)c(=O)n2nc(C3=CCC(OCC4CC4)CC3)nc2n1CC(=O)Nc1ccc(C(F)(F)F)cc1Cl (stereo not shown),54.7 nM,4.51,> 10000,–
CCc1c(N2CCN(C(=O)c3ncnc(C)c3O)CC2)c(=O)n2nc(C3=CCC(C(=O)N4CC(F)(F)C4)CC3)nc2n1CC(=O)Nc1ccc(C(F)(F)F)cc1Cl (racemic),59.8 nM,4.81,> 10000,–
CCc1c(N2CCN(C(=O)c3ncnc(C)c3O)CC2)c(=O)n2nc(-c3ccc4ccoc4c3)nc2n1CC(=O)Nc1ccc(C(F)(F)F)cc1Cl,69.8 nM,2.9,> 10000,–
CCc1c(N2CCN(C(=O)c3ncnc(C)c3O)CC2)c(=O)n2nc(C3=CCC(S(=O)(=O)C4CC4)CC3)nc2n1CC(=O)Nc1ccc(C(F)(F)F)cc1Cl (stereo not shown),52 nM,3.05,> 10000,–
"[2H]C1([2H])CCC(c2nc3n4c(c(N5CCN(C(=O)c6ncnc(C)c6O)[C@H]6CC[C@@H]65)c(=O)n3n2)C(C)CC4C(=O)Nc2ccc(C(F)(F)F)cc2Cl)=CCO1 (single isomer, unassigned)",4.8 nM,2.19,> 10000,–
[2H]C1([2H])CCC(c2nc3n(CC(=O)Nc4ccc(C(F)(F)F)c5ccccc45)c(CC)c(N4CCN(C(=O)c5ncnc(C)c5O)CC4)c(=O)n3n2)=CCO1,49.5 nM,4.7,> 10000,–
CCc1c(N2CCN(C(=O)c3ncnc(C)c3O)CC2)c(=O)n2nc(C3=CCN(C(=O)OC4CCCCC4)CC3)nc2n1CC(=O)Nc1ccc(C(F)(F)F)cc1Cl,49.8 nM,14,8090,–
CCc1c(N2CCN(C(=O)c3ncnc(C)c3O)CC2)c(=O)n2nc(C3=CCN(C(=O)OC4CCC4)CC3)nc2n1CC(=O)Nc1ccc(C(F)(F)F)cc1Cl,51.8 nM,7.65,> 10000,–
CCc1c(N2CCN(C(=O)c3ncnc(C)c3O)CC2)c(=O)n2nc(C3=CCC(S(=O)(=O)C(C)(C)C)CC3)nc2n1CC(=O)Nc1ccc(C(F)(F)F)cc1Cl (stereo not shown),50.3 nM,4.7,> 10000,–
CCc1c(N2CCN(C(=O)c3ncnc(C)c3O)CC2)c(=O)n2nc(C3=CCN(C(=O)N(C)C)CC3)nc2n1CC(=O)Nc1ccc(C(F)(F)F)cc1Cl,50.6 nM,5.21,> 10000,–
"[2H]C1([2H])CCC(c2nc3n4c(c(N5CCN(C(=O)c6ncnc(C)c6O)C(C)C5)c(=O)n3n2)C(C)CC4C(=O)Nc2scc(C(F)(F)F)c2C)=CCO1 (single isomer, unassigned) [306-P4]",18.4 nM,1.12,> 10000,–
CCc1c(N2CCN(C(=O)c3ncnc(C)c3O)CC2)c(=O)n2nc(C3=CCC(C(=O)N4CCC(F)(F)CC4)CC3)nc2n1CC(=O)Nc1ccc(C(F)(F)F)cc1Cl (stereo not shown),28.4 nM,2.3,> 10000,–
CCc1c(N2CCN(C(=O)c3ncnc(C)c3O)CC2)c(=O)n2nc(C3=CCC4(CC3)CCN(C)C4=O)nc2n1CC(=O)Nc1ccc(C(F)(F)F)cc1Cl (stereo not shown),33.5 nM,2.03,> 10000,–
CCc1c(N2CCN(C(=O)c3ncnc(C4CC4)c3O)CC2)c(=O)n2nc(C3=CCOCCC3)nc2n1CC(=O)Nc1ccc(C(F)(F)F)cc1Cl,27 nM,4.24,> 10000,–

SMILES,"IC50 (SW48 (CRC, MSI); [2])",IC50 [1] [nM],"IC50 (SW620 (CRC, MSS)) [nM]",other results
CCc1c(N2CCN(C(=O)c3ncnc(C)c3O)CC2)c(=O)n2nc(C3=CCOCCC3)nc2n1CC(=O)Nc1ccc(C(F)(F)F)cc1Cl,50.8 nM,6.63,> 10000,–
CCc1c(N2CCN(C(=O)c3ncnc(C)c3O)CC2)c(=O)n2nc(C3=CCC(OC4CCCCC4)CC3)nc2n1CC(=O)Nc1ccc(C(F)(F)F)cc1Cl (stereo not shown),78.2 nM,6.9,> 10000,–
CCc1c(N2CCN(C(=O)c3ncnc(C)c3O)CC2)c(=O)n2nc(C3=CCOCC3)nc2n1CC(=O)Nc1ccc(C(F)(F)F)c2occc12,44.3 nM,0.63,> 10000,–
CCc1c(N2CCN(C(=O)c3ncnc(C)c3O)CC2)c(=O)n2nc(C3=CCC(n4cccn4)CC3)nc2n1CC(=O)Nc1ccc(C(F)(F)F)cc1Cl (stereo not shown),33.4 nM,2.8,> 10000,–
CCc1c(N2CCN(C(=O)c3ncnc(C)c3O)CC2)c(=O)n2nc(C3=CCOCC3)nc2n1CC(=O)Nc1cc(C(F)(F)F)sc1Cl,82.7 nM,5.2,> 10000,–
CCc1c(N2CCN(C(=O)c3ncnc(C)c3O)CC2)c(=O)n2nc(C3=CCC(C(=O)N(C)C)CC3)nc2n1CC(=O)Nc1ccc(C(F)(F)F)cc1Cl (stereo not shown),27.7 nM and 25.8 nM,0.84,> 10000,–
CCc1c(N2CCN(C(=O)c3ncnc(C)c3O)CC2)c(=O)n2nc(C3=CCC4(CCCO4)CC3)nc2n1CC(=O)Nc1ccc(C(F)(F)F)cc1Cl (stereo not shown),70.3 nM,2.8,> 10000,–
CCc1c(N2CCN(C(=O)c3ncnc(C)c3O)CC2)c(=O)n2nc(C3=CCC(OC(=O)N(C)C)CC3)nc2n1CC(=O)Nc1ccc(C(F)(F)F)cc1Cl (stereo not shown),43.6 nM,2.7,> 10000,–
CCc1c(N2CCN(C(=O)c3ncnc(C)c3O)CC2)c(=O)n2nc(C3=CCOCCC3)nc2n1CC(=O)Nc1ccc(C(F)(F)F)c2sccc12,26.8 nM,0.83,> 10000,–
CCc1c(N2CCN(C(=O)c3ncnc(C)c3O)CC2)c(=O)n2nc(C3=CCN(C(=O)N4CCCC4)CC3)nc2n1CC(=O)Nc1ccc(C(F)(F)F)cc1Cl,38.7 nM,5.52,> 10000,–
CCc1c(N2CCN(C(=O)c3ncnc(C)c3O)CC2)c(=O)n2nc(C3=CCN(C(=O)OC4CCOCC4)CC3)nc2n1CC(=O)Nc1ccc(C(F)(F)F)cc1Cl,16 nM,2.6,> 10000,–
CCc1c(N2CCN(C(=O)c3ncnc(C)c3O)CC2)c(=O)n2nc(C3=CCCOCC3)nc2n1CC(=O)Nc1ccc(C(F)(F)F)cc1Cl,45.6 nM,4.2,> 10000,–
CCc1c(N2CCN(C(=O)c3ncnc(C)c3O)CC2)c(=O)n2nc(C3=CCN(C(=O)OC4CC4)CC3)nc2n1CC(=O)Nc1ccc(C(F)(F)F)cc1Cl,38 nM,6.9,> 10000,–
[2H]C1([2H])CCC(c2nc3n(CC(=O)Nc4ccc(C(F)(F)F)cc4Cl)c(CC)c(N4CCN(C(=O)c5ncnc(C)c5O)[C@H]5CC[C@@H]54)c(=O)n3n2)=CCO1,7.35 nM,1.38,> 10000,–
CCc1c(N2CCN(C(=O)c3ncnc(C)c3O)CC2)c(=O)n2nc(C3=CCC(OC(=O)N4CCCC4)CC3)nc2n1CC(=O)Nc1ccc(C(F)(F)F)cc1Cl (stereo not shown),58.9 nM,2.3,> 10000,–
[2H]C1([2H])C=C(c2nc3n(CC(=O)Nc4scc(C(F)(F)F)c4C)c(CC)c(N4CCN(C(=O)c5ncnc(C)c5O)CC4)c(=O)n3n2)CCC([2H])([2H])O1,48.5 nM,2.01,> 10000,–
CCc1c(N2CCN(C(=O)c3ncnc(C)c3O)CC2)c(=O)n2nc(C3=CCC(S(=O)(=O)c4ccccc4)CC3)nc2n1CC(=O)Nc1ccc(C(F)(F)F)cc1Cl (stereo not shown),53.1 nM,2,> 10000,–
"CCc1c(N2CCN(C(=O)c3ncnc(C)c3O)CC2)c(=O)n2nc(C3=CCC(C(=O)N4CCCC4)CC3)nc2n1CC(=O)Nc1ccc(C(F)(F)F)cc1Cl (single isomer, unassigned)",–,–,> 10000,"IC50 (SW48 (CRC, MSI); read-out: SW48 (CRC, MSI), 120 hours, listed as 152-peak 1): 30.6 nM; IC50 (SW48 (CRC, MSI); read-out: SW48 (CRC, MSI), 120 hours, listed as 152-peak 2): 76.3 nM; IC50 ([1]; listed as 152-peak 1): 3.22 nM; IC50 ([1]; listed as 152-peak 2): 4 nM"
CCc1c(N2CCN(C(=O)c3ncnc(C)c3O)CC2)c(=O)n2nc(C3=CCOCC3)nc2n1CC(=O)Nc1scc(C(F)(F)F)c1C,43.4 nM,4.39,> 10000,–
CCc1c(N2CCN(C(=O)c3ncnc(C)c3O)CC2)c(=O)n2nc(C3=CCN(C(=O)CC4CC4)CC3)nc2n1CC(=O)Nc1ccc(C(F)(F)F)cc1Cl,43.3 nM,9.31,> 10000,–
